{"source": "patent EP2264064A1", "target": "GLP-1 receptor (RINm5f cell membranes) (UniProt P32301)", "assay": "cell-based or functional assay"}
{"substance": "exendin-4 (peptide)", "values": [{"measurement": "GLP-1 Cyclase EC50", "result": 0.27, "unit": "nM"}]}
